High-throughput results: PubChem BioAssay, Broad Institute
Hits are enriched below; roughly 2.8% of the tested compounds scored in any of these assays.
esBAF inh = inhibitors of esBAF chromatin remodeling in mouse ES cells; Bmi1-luciferase knock-in reporter, 24 h; 100% = twice the neutral-well signal; reporter increase, % at 12.5 µM; hit rate 2% among 350,000; in the data active means activation above about 40%; inconclusive means no clear call, values can overlap the other calls;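 further: 0% = median of the plate's neutral control wells and 100% = double that signal; a rise in the Bmi1 reporter signal indicates esBAF inhibition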
PglD DTNB = inhibitors of Campylobacter jejuni PglD acetyltransferase | purified PglD enzyme, DTNB colorimetric CoA detection | inhibition, % at 12.5 µM | hit rate 0.098% among 360,000 | AID 602405; in the data active means inhibition above about 16%, passing the limit was not always enough; inconclusive means no clear call, values can overlap the other calls
C2C12 statin = suppressors of simvastatin-induced myotoxicity in C2C12 myotubes; ATP luminescence, 48 h; scaled: DMSO 0, geranylgeraniol control 100; rescue of ATP level, % at 7.49 µM; hit rate 0.78% among 330,000; AID 602340;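 active means mean ATP rescue above about 67%, or every replicate alone reaching that limit, limit read from the data, passing the limit was not always enough; inconclusive means no clear call, values can overlap the other calls; inactive means mean under the limit and some replicate under it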;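 further: myotubes were challenged with 10 µM simvastatin during compound exposure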
E-sel inducer = induces E-selectin expression in human endothelial cells. hit rate 0.37% among 260,000. P16581. activation, % at 7.58 µM. HUVEC E-selectin immunofluorescence imaging; normalized: neutral wells 0, TNF-alpha wells 100;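 active means mean E-selectin-positive cell signal at least 10% of the positive control, reached in at least 60% of replicates, without over 20% cell loss; inconclusive means no rule given, readout overlaps actives, possibly toxicity-flagged; inactive means the rest, including those meeting only one limit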
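Material: HUVEC primary endothelial cells; Amount: 3,000 cells per well; Dosing: single concentration; Medium: EGM-2 growth medium on 0.1% gelatin-coated wells; Read-out basis: percent E-selectin-positive cells; Signal: immunofluorescence imaging; Control set: TNF-alpha, DMSO.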
PGC1a acetyl inh = lowers PGC1a acetylation signal in U2OS cells; hit rate 0.17% among 350,000; inhibition, % at 15.6 µM; AlphaScreen anti-acetyl-lysine; with virally co-expressed GCN5 acetyltransferase; AID 651687;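 active means every replicate shows inhibition of at least 40%; inconclusive means mean inhibition at least 40% but some replicate below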;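 further: 0% = neutral control wells and 100% = positive control wells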
Yeast UUG start = modulators of yeast start codon fidelity, primary screen, whole organism, S. cerevisiae, single point, plate reader | AID 602363, 2012 | actives 0.13% (n = 350,000) | activity score, % at 18.7 µM | S. cerevisiae UUG-firefly luciferase reporter, luminescence/redox ratio;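 active means replicate mean at a twofold rise or more, about +100% in these data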;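 further: firefly luciferase made from a UUG start codon reports start codon fidelity; reporter light over untreated wells divided by growth signal over untreated wells; some hits fall short of that in this replicate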
* hit, by the source's call; ? = inconclusive; · = not tested or not shown; ! = not active in a repeat.

Under each structure – esBAF inh, PglD DTNB, C2C12 statin, E-sel inducer, PGC1a acetyl inh, Yeast UUG start
1: CCCC(=O)Nc1ccc2c(c1)C(=O)N(C)C[C@H](OC)[C@H](C)CN(Cc1nccs1)[C@@H](C)CO2
→ -7, 2, -10, 0, -17, ·
2: Cc1c(-c2ccccc2)nnn1-c1ccc(F)c(Cl)c1
→ ·, ·, ·, 0, ·, ·
3: Cc1c(-c2ccccc2)nnn1-c1ccc(F)cc1F
→ 51*, -4, 1, 0, 5, -14
4: O=C(CCNS(=O)(=O)c1ccc(Br)cc1)NCc1ccc2c(c1)OCO2
→ 4, 0, 152*, ·, -22, 13
5: COc1ccc(S(=O)(=O)NC(CC(=O)NCc2ccc3c(c2)OCO3)c2ccco2)cc1 (configuration not stated)
→ -3, 2, 117*, ·, 5, -8
6: CCCNS(=O)(=O)c1ccc(CCC(=O)NCc2ccc3c(c2)OCO3)cc1
→ ·, -4, ·, ·, -4, -15
7: O=C(NC1CCC1)[C@@H]1[C@@H](CO)[C@@H]2Cn3c(ccc(-c4cncnc4)c3=O)[C@@H]2N1C(=O)NC1CCCC1
→ 4, -1, -6, 0, ·, ·
8: Clc1ccc(CN2CCN(/N=C/c3ccco3)CC2)cc1
→ -8, -1, 5, 0, -2, -9
9: Cc1ccc(/C=N/N2CCN(Cc3ccc(Cl)cc3)CC2)o1
→ 5, 0, 81*, ·, 4, -20
10: CCCc1cc(=O)n2[nH]c(C)nc2n1
→ -5, 10, 3, ·, -1, -18
11: Cc1nc2nc(CSc3nnc(C)s3)cc(=O)n2[nH]1
→ 1, 1, 107*!, 2, -9, -14
12: CC(=O)Oc1cccc(NC(=O)c2ccc3c(c2)C(=O)N(CC(C)C)C3=O)c1
→ 44*, 4, 1, ·, 6, -25
13: Nc1nc(CSC(=S)N2CCOCC2)nc(Nc2ccc(F)cc2)n1
→ 66*, -4, -2, ·, 4, -12
14: CN1CCN(C(=S)SCc2nc(N)nc(Nc3ccc(F)cc3)n2)CC1
→ ·, -2, ·, ·, ·, -11
15: COc1ccc(Nc2nc(N)nc(CSC(=S)N3CCOCC3)n2)cc1
→ 49*, 2, 3, ·, -4, -15
16: COC(=O)N(C)C[C@@H]1OCc2ccccc2-c2c(n(C)c3ccccc23)C(=O)N([C@@H](C)CO)C[C@@H]1C
→ 1, 0, -13, 0, 1, 20
17: O=C(C[C@@H]1C=C[C@@H](NC(=O)C2CC2)[C@@H](CO)O1)NCCc1cscn1
→ ·, ·, ·, 1, 16, ·
18: C[C@@H]1CN([C@@H](C)CO)C(=O)c2cccc(NC(=O)c3ccc(-c4nccs4)cc3)c2O[C@H]1CN(C)Cc1ccncc1
→ 5, 9, 6, 3, 4, 17
19: CCN(CC)c1ccc2nc3ccccc3[n+](CC)c2c1
→ -66, -6, -115, ·, ·, 6
20: CCN(CC)c1ccc2nc3ccc(N)cc3[n+](-c3ccccc3)c2c1
→ -82, -2, -152, 92*, -29, -10
21: CC1(C)CC(=O)c2cnc(N3CCc4ccccc43)nc2C1
→ ·, ·, ·, 4, -9, ·
22: Fc1cnc(N2CCc3ccccc32)nc1N1CCc2ccccc21
→ 47*, -6, -21, ·, 0, -26
23: COc1ccc(CN(C)C[C@@H]2Oc3ccc(NC(=O)Cc4cn(C)c5ccccc45)cc3CC(=O)N([C@H](C)CO)C[C@@H]2C)cc1
→ 4, 2, 13, 1, -12, 7
24: O=[N+]([O-])/C=C/c1c(OCc2ccccc2)ccc2ccccc12
→ 23, -5, -4, ·, ·, 286*
25: C[C@@H]1CN([C@H](C)CO)S(=O)(=O)c2ccc(-c3cccc(C#N)c3)cc2O[C@H]1CN(C)C(=O)c1cccnc1
→ 5, 4, -19, 0, 9, -10
26: O=C1NC(=S)S/C1=C\C=C\c1ccc([N+](=O)[O-])o1
→ ·, -7, ·, 248*, -73, -1
27: COc1cc(O)sc1C=Nc1ccc(Cl)cc1
→ 55*, -4, 3, 0, ·, 3
28: CCCC(=O)Nc1ccc2c(c1)C(=O)N(C)[C@H]1CC[C@@H](CC(=O)NCCCN(C)C)O[C@H]1CO2
→ 8, -1, -1, 0, 1, -13
29: O=C(O)c1ccc(N/N=C/c2ccc(-c3ccc(Br)cc3)o2)cc1
→ 29, 0, 72*, ·, ·, -9
30: C[C@@H]1CCCCO[C@H](CN(C)C(=O)c2ccccc2)[C@H](C)CN([C@H](C)CO)C(=O)c2cc(NC(=O)c3ccccc3)ccc2O1
→ ·, -1, ·, ·, 0, ·
31: CC(=O)Nc1ccc(S(=O)(=O)Nc2ccc3nc(C)sc3c2)cc1
→ ·, -3, 90*, 0, 3, 4
32: Cc1nc2ccc(NC(=O)CCC3CCCC3)cc2s1
→ 50*, -6, -10, ·, -7, -26
33: Cc1nc2cc(NC(=O)c3ccc(Br)s3)ccc2s1
→ 70*, 1, 9, 0, ·, -26
34: Cc1ccc(C(=O)Nc2ccc3nc(C)sc3c2)s1
→ 58*, 4, -11, ·, -3, -18
35: Cc1ccc(S(=O)(=O)Nc2ccc3nc(C)sc3c2)cc1
→ ·, ·, ·, ·, 5, ·
36: Cc1nc2ccc(NC(=O)CCS(=O)(=O)c3ccc(Cl)cc3)cc2s1
→ ·, ·, ·, 1, ·, ·
37: Cc1ccc(S(=O)(=O)Nc2ccc3c(c2)C(=O)N([C@H](C)CO)C[C@H](C)[C@@H](CN(C)C(=O)Nc2c(C)noc2C)OCCCC[C@@H](C)O3)cc1
→ -3, -3, ·, ·, 18, -6
38: O=C(NC1CCCCC1)N[C@H]1CC[C@H](CCNS(=O)(=O)c2ccccc2)O[C@@H]1CO
→ 3, 1, -6, 0, -31, -7
39: COc1ccc2c3c(n(C)c2c1)[C@H](CO)NCC31CN(S(=O)(=O)c2cccc(F)c2)C1
→ ·, ·, ·, 0, 4, ·
40: O=C(C[C@@H]1C[C@@H]2c3cc(NS(=O)(=O)c4ccccc4)ccc3O[C@@H]2[C@H](CO)O1)NCC(F)(F)F
→ -1, 3, -11, 0, 6, ·
41: Cc1cc2oc(=O)cc(CN3CCC(C)CC3)c2cc1C
→ 41*, 6, -7, 1, ?, 10
42: C[C@@H]1CN([C@@H](C)CO)C(=O)c2cc(-c3ccccc3F)cnc2O[C@@H]1CN(C)C(=O)C1CCOCC1
→ 0, 4, -9, 0, 7, 8
43: CCCCN(CCCC)S(=O)(=O)c1ccc(NC(=O)CN2CCOCC2)cc1
→ -3, -3, 130*, ·, -2, -5
44: CN(C)S(=O)(=O)c1ccc(NC(=O)CN2CCOCC2)cc1
→ -6, ·, -1, 0, ·, ·
45: OC[C@H]1[C@@H](c2ccc(C#Cc3cccnc3)cc2)[C@@H]2CN(Cc3ccccc3F)CCCCN12
→ -4, 2, 0, 0, -4, 0
46: COc1ccccc1N1CCN(C(=O)c2ccc(S(=O)(=O)N3CCCCCC3)cc2)CC1
→ 1, -8, 127*, ·, -18, 11
47: O=C(c1ccc(S(=O)(=O)N2CCCCC2)cc1)N1CCN(c2ccccc2F)CC1
→ ·, 6, ·, ·, ·, 1
48: COc1ccc(NC(=O)N(C)C[C@@H]2Oc3ccc(NC(=O)CCCCCC(=O)Nc4ccccc4N)cc3CC(=O)N([C@H](C)CO)C[C@@H]2C)cc1
→ -1, -2, -28, 14, 6, -3
49: Cc1nn2c(-c3ccc(Cl)cc3)ccnc2c1-c1ccccc1
→ 57*, -4, -40, ·, 18, -10

With a hit mark in Yeast UUG start, among the entries above:
| no. | structure | esBAF inh | PglD DTNB | PGC1a acetyl inh | Yeast UUG start |
| --- | --- | --- | --- | --- | --- |
| 24 | O=[N+]([O-])/C=C/c1c(OCc2ccccc2)ccc2ccccc12 | 23 | -5 | · | 286* |

3 entries out of the list, sorted by heavy-atom count, smallest number first.
Under each structure – esBAF inh, PglD DTNB, C2C12 statin, E-sel inducer, PGC1a acetyl inh, Yeast UUG start
44: CN(C)S(=O)(=O)c1ccc(NC(=O)CN2CCOCC2)cc1
→ -6, ·, -1, 0, ·, ·
46: COc1ccccc1N1CCN(C(=O)c2ccc(S(=O)(=O)N3CCCCCC3)cc2)CC1
→ 1, -8, 127*, ·, -18, 11
45: OC[C@H]1[C@@H](c2ccc(C#Cc3cccnc3)cc2)[C@@H]2CN(Cc3ccccc3F)CCCCN12
→ -4, 2, 0, 0, -4, 0
